# Assay results reported in PubChem BioAssay AID1700 (The Scripps Research Institute Molecular Screening Center, 2009).
# This is a selection; strong and weak results do not stand in their true shares. The source made the active and inactive calls.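 Rule for the calls: active = inhibition above a per-plate limit of that plate's mean compound inhibition plus 3 SD (cut at about 60% in these data); inactive = the rest.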
# Assay: suppression of KLF5 promoter-driven luciferase – DLD-1 cells, luminescence, primary screen (AID 1700);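 note: 0% = DMSO wells and 100% = LY294002 at 200 µM; higher means less KLF5 promoter-driven luciferase light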
# Details: DLD-1 KLF5 promoter-luciferase reporter, at 5 µM, active compounds read high
row,SMILES,inhibition
1,Cc1c(NP(C)(=O)Oc2ccc(C(C)C)cc2)c(=O)n(-c2ccccc2)n1C (stereo unspecified),inactive: -27.4%
